Reference: ChEMBL document CHEMBL1141905, “3,4-disubstituted azetidinones as selective inhibitors of the cysteine protease cathepsin K. Exploring P3 elements for potency and selectivity” (Bioorg Med Chem Lett, 2005)

Amino acid sequences for entries named in this document (tags omitted). A change or cut given only in a name is not applied to a line headed by its entry.
UniProt P07711: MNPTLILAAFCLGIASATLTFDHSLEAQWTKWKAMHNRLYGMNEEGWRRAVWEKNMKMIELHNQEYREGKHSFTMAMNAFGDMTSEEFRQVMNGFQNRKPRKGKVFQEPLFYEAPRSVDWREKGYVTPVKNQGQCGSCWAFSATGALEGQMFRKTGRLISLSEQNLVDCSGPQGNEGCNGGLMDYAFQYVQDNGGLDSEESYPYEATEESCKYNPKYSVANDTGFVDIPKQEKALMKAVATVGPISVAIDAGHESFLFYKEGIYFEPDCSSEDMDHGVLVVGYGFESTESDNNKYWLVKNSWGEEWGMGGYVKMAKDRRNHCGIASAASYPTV
UniProt P25774, whole entry, looked up: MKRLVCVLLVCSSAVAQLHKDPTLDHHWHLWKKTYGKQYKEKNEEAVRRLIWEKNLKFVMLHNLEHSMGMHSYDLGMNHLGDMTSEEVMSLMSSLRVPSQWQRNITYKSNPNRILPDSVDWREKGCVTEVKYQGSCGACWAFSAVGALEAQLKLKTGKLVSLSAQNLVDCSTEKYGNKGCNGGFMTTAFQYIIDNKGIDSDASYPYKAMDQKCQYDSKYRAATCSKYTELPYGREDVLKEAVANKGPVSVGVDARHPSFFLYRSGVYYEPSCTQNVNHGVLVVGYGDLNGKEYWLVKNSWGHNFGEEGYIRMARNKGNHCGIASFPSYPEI

Key:
[1] = target: Procathepsin L (Homo sapiens) (UniProt P07711)
[2] = target: T1, Cathepsin K (Oryctolagus cuniculus) (UniProt P43236)
T1 sequence (whole entry): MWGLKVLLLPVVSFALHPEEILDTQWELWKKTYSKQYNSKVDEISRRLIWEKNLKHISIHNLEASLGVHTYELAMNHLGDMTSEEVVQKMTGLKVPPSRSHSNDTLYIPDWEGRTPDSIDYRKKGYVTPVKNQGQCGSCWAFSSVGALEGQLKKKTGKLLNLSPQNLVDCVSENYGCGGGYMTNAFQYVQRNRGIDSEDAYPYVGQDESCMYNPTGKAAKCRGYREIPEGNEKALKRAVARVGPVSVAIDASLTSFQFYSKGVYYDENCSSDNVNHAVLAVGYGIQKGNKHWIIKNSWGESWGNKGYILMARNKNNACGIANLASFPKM

[3] = target: Cathepsin B (Homo sapiens) (UniProt P07858); assay: Apparent inhibitory constant against human cathepsin B
[4] = target: Cathepsin S (Homo sapiens) (UniProt P25774); assay: Apparent inhibitory constant against human cathepsin S
[5] = target: Procathepsin L (Homo sapiens) (UniProt P07711); remark: listed apart in the source
[6] = target: T1, Cathepsin K (Oryctolagus cuniculus); assay: Apparent inhibitory constant against rabbit cathepsin K

Ki'' [1] [nM] | Ki'' [2] [nM] | Ki'' [3] [nM] | Ki'' [4] [nM] | Ki'' [5] [nM] | Ki'' [6] [nM] | SMILES
1100 | 3.6 | 6000 | 51000 |  |  | CN1CCN(c2nc(-c3ccc(C(=O)NC4(C(=O)N[C@@H]5C(=O)N[C@H]5Oc5ccccc5)CCCCC4)cc3)cs2)CC1
 |  | 340 | 17000 | 2400 | 4.8 | CN1CCN(c2nc(-c3ccc(C(=O)NC4(C(=O)N[C@@H]5C(=O)N[C@@H]5Oc5ccccc5)CCCCC4)cc3)cs2)CC1
